This is a selection; strong and weak results do not stand in their true shares. The source made the active and inactive calls.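 Rule for the calls: active = inhibition above the mean of the plate negative controls plus 5 SD (cut at about 13% in these data); inactive = the rest.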

For 36 molecules, inhibition results are on record in PubChem BioAssay AID1029 (Sanford-Burnham Center for Chemical Genomics, 2008).

This experiment in a line: inhibitors of macrophage phagocytosis, primary screen, imaging, J774A.1 cells, IgG beads (AID 1029).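 Note: phagocytic index as fraction of beads internalized from green versus red external bead signal; plate controls were DMSO negative control for no effect and cytochalasin-D positive control for full effect.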 Particulars: J774A.1 macrophage IgG-bead phagocytosis, at 5 µM, hits give high values.
For orientation: inhibition means the change of the read-out against control, counted positive when it falls. On to `O=[N+]([O-])c1cc([N+](=O)[O-])c(-c2ccn[nH]2)s1`, for which the inhibition was inactive: -3.68%.

Regarding `CCN(CC)C(=S)SC(NC=O)C(Cl)(Cl)Cl` (stereo unspecified), the inhibition is inactive: 1.1%.

In the case of `Cc1ccc2nc3c(c(C)c2c1)CC(C(Cl)Cl)S3` (stereo unspecified), the inhibition was inactive: -6.11%.

For `O=C(OC1CN2CCC1CC2)C12CC3CC(CC(C3)C1)C2` (stereo unspecified), the inhibition is inactive: 1.1%.

In the case of `Cc1c2c(nc3ccccc13)SC(C(Cl)Cl)C2` (stereo unspecified), the inhibition is inactive: -16.8%.

Turning to `COP1(=S)c2c(C)nn(CCC#N)c2N=C(c2ccc(F)cc2)N1C` (stereo unspecified), the inhibition was inactive: 0.9%.

On to `O=C(COc1ccccc1)OC1CN2CCC1CC2` (stereo unspecified), for which the inhibition is inactive: -0.9%.

Consider `Cc1cc(SC(NC(=O)c2ccccc2)C(Cl)(Cl)Cl)nc(C(C)C)n1` (stereo unspecified), for which the inhibition was inactive: -10.9%.

Consider `O=P1(Nc2ncccn2)COc2ccccc2OC1`, for which the inhibition is inactive: 2.4%.

Regarding `Cc1ccc(OCC(=O)OC2CN3CCC2CC3)cc1` (stereo unspecified), the inhibition is inactive: -0.3%.

As for `O=P1(Nc2ccc(Br)cn2)COc2ccccc2OC1`, the inhibition is inactive: -1.8%.

Turning to `Cc1nn(-c2ccccc2)c2c1P(=O)(N1CCOCC1)N(C)C(c1ccccc1)=N2` (stereo unspecified), the inhibition was inactive: 2.1%.

For `O=P1(Nc2ccccn2)COc2ccccc2OC1`, the inhibition was inactive: -1.2%.

As for `Clc1n[nH]nc1-c1nn[nH][15n]1`, the inhibition was inactive: -1.1%.

For `CCOP(=O)(Nc1cccc2ccccc12)OCC`, the inhibition is inactive: -0.19%.

`COc1cc(C2NCCC3(OCCO3)C2(C)C)cc(OC)c1OC` (stereo unspecified): the inhibition is inactive: -3.74%.

Regarding `Cc1cccc(OCC(=O)OC2CN3CCC2CC3)c1` (stereo unspecified), the inhibition is inactive: -1.9%.

For `O=[N+]([O-])c1ccc2c(c1)nnn2O`, the inhibition is inactive: -1.1%.

As for `CCOP1(=S)c2c(C)nn(CCC#N)c2N=C(c2ccc(F)cc2)N1C` (stereo unspecified), the inhibition was inactive: -0.5%.

For `O=P(Nc1nccs1)(c1ccccc1)c1nc2ccccc2s1` (stereo unspecified), the inhibition is inactive: 0.3%.

Consider `CCOP1(=S)c2c(C)nn(CCC#N)c2N=C(c2ccccc2F)N1C` (stereo unspecified), for which the inhibition is inactive: 0.9%.

Consider `CC(=O)NC(SC(=S)N(CC(C)C)CC(C)C)C(Cl)(Cl)Cl` (stereo unspecified), for which the inhibition was inactive: -2.32%.

Consider `O=P1(Nc2nc3ccc(Cl)cc3s2)COc2ccccc2O1` (stereo unspecified), for which the inhibition is inactive: -1.4%.

With `O=P(Nc1nccs1)(c1ccccc1)c1ccccc1`, the inhibition was inactive: -0.7%.

For the molecule `c1nnnn1CCn1cnnn1`, the inhibition was inactive: -3.3%.

In the case of `CC(=O)NC(SC(=S)N(C)C)C(Cl)(Cl)Cl` (stereo unspecified), the inhibition was inactive: -2.52%.

Consider `C(Cc1nn[nH]n1)Cc1nn[nH]n1`, for which the inhibition was inactive: 1.72%.

`O=C(OC1CN2CCC1CC2)c1cccc(Cl)c1` (stereo unspecified): the inhibition is inactive: -0.8%.

Turning to `CN(C)C(=O)OCCc1n(C)cc[n+]1C`, the inhibition is inactive: -6.34%.

On to `CCc1nc2c(n1)c1c(non1O)c1c2no[n+]1[O-]`, for which the inhibition was inactive: -4.2%.

Consider `O=C(NC(Sc1ccncn1)C(Cl)(Cl)Cl)c1ccccc1` (stereo unspecified), for which the inhibition was inactive: -6.14%.

With `Cc1c2non([O-])c-2c(C)[n+](=O)[n+]1[O-]`, the inhibition was inactive: -1%.

As for `Oc1ccccc1CNc1ccccn1`, the inhibition was inactive: -1.7%.

As to `CCN(N=Nc1nonc1N)c1nonc1N`, the inhibition was inactive: -5.29%.

As for `Cc1cc(SC(NC(=O)c2ccc(F)cc2)C(Cl)(Cl)Cl)ncn1` (stereo unspecified), the inhibition was inactive: -10.1%.

As for `CCOP(=O)(Nc1ccccc1)OCC`, the inhibition is inactive: -0.7%.
